Experimental findings from US4587254A, “1,3,4-thiadiazole derivatives, process for the production thereof and use thereof as antiulcer agent” (Wakamoto Pharmaceutical Co., Ltd., priority 1983, dated 1986) are described below.

The chains behind the UniProt entries cited, without tags or fusion partners.
UniProt P47747, whole entry: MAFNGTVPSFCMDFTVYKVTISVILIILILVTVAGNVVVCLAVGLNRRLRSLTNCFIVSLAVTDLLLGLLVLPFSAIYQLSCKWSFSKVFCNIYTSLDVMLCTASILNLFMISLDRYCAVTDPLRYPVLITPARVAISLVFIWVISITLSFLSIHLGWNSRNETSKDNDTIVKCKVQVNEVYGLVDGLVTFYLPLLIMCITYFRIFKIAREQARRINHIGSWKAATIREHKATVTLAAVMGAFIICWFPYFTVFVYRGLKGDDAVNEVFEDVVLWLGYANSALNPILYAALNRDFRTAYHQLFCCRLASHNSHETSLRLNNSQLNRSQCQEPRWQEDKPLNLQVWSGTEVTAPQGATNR

In the experiment the target is T1, histamine H2 receptors (Cavia porcellus, UniProt P47747).
T1 construct: histamine-induced heart rate increase (chronotropic), pA2
The experiment in a line: Antagonism to histamine H2 receptors (isolated guinea pig atria, histamine-induced heart rate increase). Further details: species or system guinea pigs (male Hartley). The settings on record: guinea pig atrium, 37° C.

In turn, `CN/C(=N/CCSCc1nc[nH]c1C)NC#N` [cimetidine, reference compound] registered a PA2 value of 6.00.
